Test results as given in patent US20160158262A1, “METHODS OF TREATING IRRITABLE BOWEL SYNDROME” (CEDARS-SINAI MEDICAL CENTER, priority 2013, published 2016).

Details: in vivo
Method: All subjects with a diagnosis of C-IBS presented for a fasting breath test after a 12 hour fast. Only subjects with methane level of >3 ppm on a single breath sample were enrolled. Subjects then completed a baseline study questionnaire and a baseline audiogram. […] Subjects were then asked to complete a daily stool diary for two weeks with weekly questionnaires for overall symptom severity. Subjects were eligible for randomization only if they were confirmed to have <3 CSBMs per week during stool diary.
The randomization scheme was set in blocks of 4 and each site received batches of drug in multiples of 4 to balance each study site into blocks. The allocation was concealed. The randomization was done by the drug company with a tracking list provided to the study site pharmacy in a concealed envelope. The pharmacy, investigators and patients were blinded. During the 14 days of treatment, subjects completed weekly symptom questionnaires (2 questionnaires over 2 weeks).
Baseline qualitative data and side effect rates were compared by Fisher's Exact Test. Quantitative baseline data was normal so were compared by t-Test. Data were expressed as mean±SD. The primary endpoint was also normally distributed and compared by t-test.

neomycin
adverse event reported during the study: felt “unwell”
